Values quoted from earlier work in patent publication US20130225483A1, “New Treatments of Hepatitis C Virus Infection” (priority 2010, published 2013).

Conditions: in vivo; cited from earlier work

Peg-IFNα2a: pegylated form of interferon alfa 2a with 40 kDa branched PEG, commercially available from Roche
sustained serum concentrations, duration: 168 h
